Reference: patent US20050008633A1, “Chemical and physical modulators of bioavailability of inhaled compositions” (Advanced Inhalation Research Inc., priority 2003, published 2005)

Assay: Pharmacokinetic studies: serum levels and absolute bioavailability after intratracheal instillation in rats
Conditions: 40 μg insulin intratracheal, compared to IV 10 μg, mean±SEM

insulin
bioavailability of insulin (rats given Cl2MDP liposomes 1 day before): 8.7±2.9% | bioavailability of insulin (rats given PBS liposomes 1 day before): 13.3±3.4% | bioavailability of insulin (untreated rats): 3.1±0.7%
